Measurements published in patent publication US20040081647.

Assays:
[1] = system: fluorometric derivative of substrate S1 (HAE-PT)
[2] = system: fluorometric derivative of substrate S2 (PT: NH2-GGVR-)

In the case of “standard human thrombin preparation (Sigma)”, the “specificity constant Kcat/Km” value [1] is reported as 8.9e+06 M⁻¹ s⁻¹ and the “specificity constant Kcat/Km” value [2] is reported as 1.03e+07 M⁻¹ s⁻¹.
